In ChEMBL document CHEMBL6182920, “The Discovery of C7-Substituted Norbornyl Bisamides as RXFP1 Small Molecule Agonists” (J Med Chem, 2025):

Target: T1, Relaxin receptor 1 (Homo sapiens) (UniProt Q9HBX9)
T1 sequence (whole entry): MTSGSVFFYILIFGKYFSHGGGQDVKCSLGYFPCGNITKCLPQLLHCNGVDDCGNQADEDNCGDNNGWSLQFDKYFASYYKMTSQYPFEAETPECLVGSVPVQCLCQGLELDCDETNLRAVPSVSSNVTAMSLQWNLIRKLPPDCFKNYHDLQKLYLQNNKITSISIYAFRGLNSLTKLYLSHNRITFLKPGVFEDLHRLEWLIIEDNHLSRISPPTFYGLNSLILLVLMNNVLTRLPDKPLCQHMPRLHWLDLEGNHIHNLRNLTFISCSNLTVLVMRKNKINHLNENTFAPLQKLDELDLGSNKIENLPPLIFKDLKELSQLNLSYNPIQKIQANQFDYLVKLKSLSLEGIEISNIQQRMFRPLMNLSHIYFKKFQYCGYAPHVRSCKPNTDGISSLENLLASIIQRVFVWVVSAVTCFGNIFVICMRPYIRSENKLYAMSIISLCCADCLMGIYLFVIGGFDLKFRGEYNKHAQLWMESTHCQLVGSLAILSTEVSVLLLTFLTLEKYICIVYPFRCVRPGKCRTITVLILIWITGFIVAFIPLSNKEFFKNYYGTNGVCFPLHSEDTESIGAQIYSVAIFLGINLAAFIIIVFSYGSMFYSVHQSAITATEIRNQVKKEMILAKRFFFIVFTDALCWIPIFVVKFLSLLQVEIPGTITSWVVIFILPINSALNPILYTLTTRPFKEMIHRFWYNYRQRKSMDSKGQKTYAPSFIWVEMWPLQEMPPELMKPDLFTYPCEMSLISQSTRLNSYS
Assay: Agonist activity at human RXFP1 assessed as maximal efficacy relative to relaxin
Assay type: functional
Conditions: filed as agonist

Emax	SMILES
65%	CC(C)Oc1ccccc1C(=O)Nc1ccccc1C(=O)Nc1cccc(S(=O)(=O)C(F)(F)F)c1
100%	COc1cc(F)c(F)cc1C(=O)Nc1ccccc1C(=O)Nc1ccc(F)c(C(F)(F)F)c1
